## Antibody variant affinities, Ab-14 light chain, assay 1

The target is the same throughout: PDVDLGDISGINAS, from the HR2 region of SARS-CoV-2 spike.

Parent: Ab-14, a human scFv built as VH, the linker GGGGSGGGGSGGGGS, VL. Only the CDRs of the light chain vary.
VH: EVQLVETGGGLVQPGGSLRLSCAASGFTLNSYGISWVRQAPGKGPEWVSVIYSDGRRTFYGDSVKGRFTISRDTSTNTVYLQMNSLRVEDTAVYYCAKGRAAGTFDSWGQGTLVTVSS
VL: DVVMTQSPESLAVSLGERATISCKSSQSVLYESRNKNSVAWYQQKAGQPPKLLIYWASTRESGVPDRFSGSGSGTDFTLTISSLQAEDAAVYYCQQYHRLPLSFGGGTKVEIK

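The parent was found by panning a naive human phage display library on the peptide. Library AAYL50 holds single substitutions and randomly drawn double and triple substitutions in the CDRs. In AlphaSeq, yeast of one mating type display the scFv and yeast of the other type display the target. The frequency of each diploid, read from paired DNA barcodes, reflects how well the two displayed proteins bind. The ratio of observed to expected reads was calibrated, replicate by replicate, on BCL2-family standards whose Kd was known from biolayer interferometry. Mating was done three times.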

The parent's light chain CDRs are KSSQSVLYESRNKNSVA, WASTRES, QQYHRLPLS; each variant's own CDRs replace them letter for letter.
Scale: log10 of Kd in nM, estimated from mating counts; low values are strong binders.
The mean shown is taken over the replicates in which the pair was detected.
Where no diploid with the target was found in that replicate, the entry reads "nd": below detection, most likely a poor binder, though not proof of it.

CDR-L1,CDR-L2,CDR-L3,"replicates, log10 nM",mean log10 Kd (nM),signal with controls
KSHQMVDYESRNKNSVA,WASTRES,QQYHRLPLS,1.10 1.26 0.82,1.06,0/9
KSSQSVLTESLNKNSVA,WPSTRES,QQYHRLPLS,nd nd 4.22,4.22,1/9 (4.05)
KSSQSVLYESRNTNSVA,WASTREI,QQYIRLPLS,3.40 nd nd,3.40,0/9
KSSQSVLYEQRNKNSVA,WAPTRCS,QQYHRLPLS,nd nd nd,nd,1/9 (4.07)
KSQQSVLYESRNKNSVA,WASDRES,LQYHRLPLS,nd nd nd,nd,0/9
KSSQSVLYESRFKNSVA,WASTRES,QQYRRNPLS,2.47 2.38 2.63,2.49,0/9
MSSDSVLYESRNKNSVA,WASTRMS,QQYHRLPLS,1.95 2.18 1.99,2.04,1/9 (3.10)
KKCQSVLYESRNKNSVA,WASTRES,QQYHRLPLM,nd nd nd,nd,0/9
KSSQHVLYESRNKNSVA,TASTRES,QQYHRLPLH,1.27 1.63 1.41,1.43,2/9 (3.40)
KSSQSVLYEQRNKNSVA,WASTRES,QQYHRLMLS,2.16 2.00 2.23,2.13,0/9
KSSQSVLYESRNKNSVK,WASTRES,QQYHRLCLN,nd nd nd,nd,3/9 (3.96)
KSSQSVLYLSRNKNEVR,WASTRES,QQYHRLPLS,nd nd nd,nd,1/9 (2.03)
KSSQSVLYESRNKNSVA,WAHTSYS,QQYHRLPLS,3.51 2.48 nd,2.99,0/9
KSSQSVLYENRNKNSVA,WASTRES,QQYHRSALS,nd 4.75 nd,4.75,2/9 (3.52)
KSSQSVLYESANKNSVA,WASTRES,TQYHMLPLS,1.25 1.35 1.47,1.36,3/9 (4.03)
KSSQSVKYESRNKNKVA,WAVTRES,QQYHRLPLS,nd nd 3.72,3.72,3/9 (4.59)
KSEQSQLYESRNKNSVA,WASTRES,QQYHRLPLM,0.67 0.85 0.85,0.79,3/9 (3.98)
KSSQSVLYEIRNKNSVA,WAAVRES,QQYHRLPLS,5.21 4.38 nd,4.80,9/9 (4.73)
KSSQSVLYESRNYNSVA,WASTRES,QPYHRLPLS,4.64 5.43 4.02,4.70,6/9 (4.75)
KSSQSVLYESRNKRSVA,WASTLES,RQYHRLPLS,nd nd nd,nd,0/9
KSSFSVLYEHRNKNSVA,WASTFES,QQYHRLPLS,2.77 4.56 nd,3.66,1/9 (3.48)
KSSQSVLYESRNKNSVA,WAWTRES,QCMHRLPLS,nd nd 5.29,5.29,3/9 (3.89)
KSSESVLYVSRNKNSVA,WASTRES,QQYHRTPLS,nd nd 4.29,4.29,0/9
KSSQSVLYEIRNKNSVA,WVSTRES,QQYHRLELS,4.29 nd 4.32,4.30,1/9 (4.40)
KSSQSVLGESRNKNSVA,WASTRES,QQHARLPLS,0.29 0.59 0.48,0.45,0/9
HSSQSYLYESRNKNSVA,WASTRES,QQYHRLPLS,1.71 1.89 1.96,1.85,1/9 (3.70)
KSSQSTLYESRNKNSVH,WASTRES,QQYHRLPLS,5.50 5.15 nd,5.32,2/9 (4.21)
KSSQSVLYESHNKNSVA,RASTRGS,QQYHRLPLS,1.66 1.51 1.51,1.56,0/9
KSSQSVLYESRNVNVVA,WASTRTS,QQYHRLPLS,nd nd nd,nd,1/9 (3.04)
KSAHSVLYESFNKNSVA,WASTRES,QQYHRLPLS,0.70 0.75 0.70,0.72,0/9
KSSFSVLYESRNKNSVA,WAWTRES,QQYHRLGLS,2.21 nd 2.34,2.28,0/9
KSCQSVLYESRNKNSVA,WASRNES,QQYHRLPLS,7.16 4.60 5.48,5.74,9/9 (5.05)
KSKQSDLYESRNKNSVA,WASTRES,QQYHDLPLS,2.06 1.99 2.13,2.06,3/9 (4.90)
KSSQSVLYESQNKNSVA,WASEREM,QQYHRLPLS,0.23 0.56 0.34,0.38,6/9 (5.07)
KSSQSVLYPSRNKNVVA,WASTRES,QQYHRLPLS,1.08 1.17 1.20,1.15,6/9 (3.55)
KSSQEVLYESRNKNSVA,WASTRES,QQYHRLPLS,0.85 0.91 0.94,0.90,1/9 (4.29)
KSSQSVKYLSRNFNSVA,WASTRES,QQYHRLPLS,1.57 1.55 1.90,1.67,4/9 (4.06)
KSSQMHLYESRNKNSVA,WYSTRES,QQYHRLPLS,nd nd nd,nd,0/9
KTLQSVLYASRNKNSVA,WASTRES,QQYHRLPLS,1.43 1.82 1.42,1.56,2/9 (4.21)
KSSQRVLYESRNKNSVA,WASTRES,QQMHRLPMS,0.92 1.41 1.15,1.16,1/9 (4.28)
KSVGSVLYESRNKNFVA,WASTRES,QQYHRLPLS,3.65 3.06 nd,3.35,4/9 (3.58)

The closing 4 entries, repeated:

CDR-L1,CDR-L2,CDR-L3,"replicates, log10 nM",mean log10 Kd (nM),signal with controls
KSSQMHLYESRNKNSVA,WYSTRES,QQYHRLPLS,nd nd nd,nd,0/9
KTLQSVLYASRNKNSVA,WASTRES,QQYHRLPLS,1.43 1.82 1.42,1.56,2/9 (4.21)
KSSQRVLYESRNKNSVA,WASTRES,QQMHRLPMS,0.92 1.41 1.15,1.16,1/9 (4.28)
KSVGSVLYESRNKNFVA,WASTRES,QQYHRLPLS,3.65 3.06 nd,3.35,4/9 (3.58)

As a blank, each scFv also met three strains without target: over library AAYL50, 18% of these pairings were detected, typically at 4.19 and seldom below 2.99. For each scFv, signals with the empty controls are counted beside the result, with their mean in brackets.

The measurements come from Engelhart et al. 2022 (doi:10.1038/s41597-022-01779-4) through the FLAb antibody collection.